This is an account of results in patent US20250361280A1 (Protagonist Therapeutics, Inc., priority 2022, published 2025).

A value given as a limit tells only on which side of the number the result lay.

In test [1] the target is T1, ferroportin (Homo sapiens, UniProt Q9NP59).
T1 sequence (Q9NP59 1-571): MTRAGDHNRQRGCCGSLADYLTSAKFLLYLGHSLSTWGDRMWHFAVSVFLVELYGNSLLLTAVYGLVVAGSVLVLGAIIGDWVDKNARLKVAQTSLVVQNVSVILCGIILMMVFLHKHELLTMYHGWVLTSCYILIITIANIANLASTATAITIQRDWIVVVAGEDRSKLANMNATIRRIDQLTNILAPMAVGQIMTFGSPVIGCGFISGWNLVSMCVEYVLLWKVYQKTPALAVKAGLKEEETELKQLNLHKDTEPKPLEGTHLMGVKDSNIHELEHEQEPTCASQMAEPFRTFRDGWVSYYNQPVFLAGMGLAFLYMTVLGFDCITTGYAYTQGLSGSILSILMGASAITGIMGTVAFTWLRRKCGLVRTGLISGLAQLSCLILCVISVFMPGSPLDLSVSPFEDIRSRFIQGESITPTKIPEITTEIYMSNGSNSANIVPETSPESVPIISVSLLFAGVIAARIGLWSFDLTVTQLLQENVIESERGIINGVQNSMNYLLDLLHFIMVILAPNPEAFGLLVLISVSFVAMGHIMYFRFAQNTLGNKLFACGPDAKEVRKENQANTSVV
Description: T47D internalization assay in presence of mouse serum albumin. Type of test: cell-based. On the set-up: a human breast carcinoma adherent cell line which endogenously expresses ferroportin; host or cells: T47D. Conditions: T47D cells, 0.5% mouse serum albumin, 1 hr incubation. The method, boiled down:
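T47D cells exposed 1 h to 10-point peptide dilutions (top ~5 μM) preincubated 30 min with 0.5% mouse serum albumin. Then 200 nM AF647-labelled ferroportin-binding detection peptide for 2 h. Flow cytometry MFI of live singlets, IC50 by 4-parameter fit.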

Test [2] concerns the target T1, ferroportin. Description: FPN internalization assay (FPN activity assay), loss of ferroportin-GFP fluorescence. The test is classed as cell-based.
Setting [3] is: Table 1D, read-out: IC50: T47D MSA.
[4] abbreviates: Table 1D, HEK293 cells stably expressing ferroportin-GFP, compound at least 18 hours, read-out: IC50: FPN.
Where [5] appears, read: Table 1C, read-out: IC50: T47D MSA.
Where [6] appears, read: Table 1C, HEK293 cells stably expressing ferroportin-GFP, compound at least 18 hours, read-out: IC50: FPN.

`CC(C)CC(=O)N[C@@H](CCC(=O)O)C(=O)N[C@H]1CSSC[C@@H](C(=O)N[C@H](C(=O)N(C)[C@@H](CCCCNC(=O)[C@H](CN)NC(=O)CCCc2ccc(I)cc2)C(=O)N[C@H](C(=O)N[C@H](CCCCN)C(N)=O)C(c2ccccc2)c2ccccc2)C2CCCCC2)NC(=O)[C@H](C(c2ccccc2)c2ccccc2)NC(=O)[C@H](Cc2c[nH]cn2)NC1=O` [compound 64]: the IC50 at ferroportin [1] (setting [3]) lay within 100 to 500 nM; at ferroportin [2] (setting [4]) it was 30 to 100 nM.

As to `CCCCCCCCCCCCCCCC(=O)NCCCCCC(=O)NCCCC[C@H](NC(=O)[C@@H]1CCCN1C(=O)[C@@H](NC(=O)[C@H](Cc1c[nH]cn1)NC(=O)[C@@H](NC(=O)[C@H](CCC(=O)O)NC(=O)CC(C)C)[C@@H](C)O)C(c1ccccc1)c1ccccc1)C(=O)N[C@H](C(=O)N(C)CCN)C(c1ccccc1)c1ccccc1` [compound 12], the values for the IC50 on ferroportin [1] (setting [5]) and at ferroportin [2] (setting [6]) were 10 to 100 nM and 30 to 100 nM, respectively.

In the case of `CC(C)CC(=O)N[C@@H](CCC(=O)O)C(=O)N[C@H](C(=O)N[C@@H](Cc1c[nH]cn1)C(=O)N[C@H](C(=O)N1CCC[C@H]1C(=O)N[C@@H](CCCCNC(=O)CCCCCNC(=O)C[N+](C)(C)CCNC(=O)CCCCCCCCCCCCCCCCC(=O)O)C(=O)NCCCCCc1ccccc1)C(c1ccccc1)c1ccccc1)[C@@H](C)O` [compound 87], the IC50 at ferroportin [1] (setting [3]) fell in the range of 100 to 500 nM; on ferroportin [2] (setting [4]), 30 to 100 nM.

For `CC(C)CC(=O)N[C@@H](CCC(=O)O)C(=O)N[C@H](C(=O)N[C@@H](Cc1c[nH]cn1)C(=O)N[C@H](C(=O)N1CCC[C@H]1C(=O)N[C@H](CCCCN)C(=O)N(CCC(=O)O)C(CCc1ccccc1)C(N)=O)C(c1ccccc1)c1ccccc1)[C@@H](C)O` (stereo partly shown) [compound 140], the IC50 at ferroportin [1] (IC50: T47D MSA (nM, Table 1D)) is > 500 nM; against ferroportin [2], > 500 nM.

As to `CC(C)CC(=O)N[C@@H](CCC(=O)O)C(=O)N[C@H](C(=O)N[C@@H](Cc1c[nH]cn1)C(=O)N[C@H](C(=O)N1CCC[C@H]1C(=O)N[C@@H](CCCCNC(=O)COCCOCCNC(=O)COCCOCCNC(=O)[C@H](CN)NC(=O)CCCc1ccc(I)cc1)C(=O)NCCCCCc1ccccc1)C(c1ccccc1)c1ccccc1)[C@@H](C)O` [compound 84], the IC50 lay within 0.1 to 10 nM on ferroportin [1] (setting [3]) and 1 to 30 nM at ferroportin [2] (setting [4]).

For `CC(C)CC(=O)NCCCC[C@H](NC(=O)[C@@H]1CCCN1C(=O)[C@@H](NC(=O)[C@H](Cc1c[nH]cn1)NC(=O)[C@@H](NC(=O)[C@H](CCC(=O)O)NC(=O)CC(C)C)[C@@H](C)O)C(c1ccccc1)c1ccccc1)C(=O)NCCCCCc1ccccc1` [compound 5], the values for the IC50 on ferroportin [1] (setting [5]) and at ferroportin [2] (setting [6]) were 10 to 100 nM and 1 to 30 nM, respectively.

In the case of `CCCCCCCCCCCCCCCC(=O)NCCCCCC(=O)NCCCC[C@H](NC(=O)[C@@H]1CSSC[C@H](NC(=O)[C@H](CCC(=O)O)NC(=O)CC(C)C)C(=O)N[C@@H](Cc2c[nH]cn2)C(=O)N[C@@H](C(c2ccccc2)c2ccccc2)C(=O)N1)C(=O)NCCCCc1ccccc1` [compound 194], the IC50 at ferroportin [1] (setting [3]) and at ferroportin [2] (setting [4]) was > 500 nM in each case.

Turning to `CC(C)CC(=O)N[C@@H](CCC(=O)O)C(=O)N[C@H](C(=O)N[C@@H](Cc1c[nH]cn1)C(=O)N[C@H](C(=O)N1CCC[C@H]1C(=O)N[C@H](CCCCN)C(=O)N(CC1CC1)C(CCc1ccccc1)C(N)=O)C(c1ccccc1)c1ccccc1)[C@@H](C)O` (stereo partly shown) [compound 153], the IC50 lay within 100 to 500 nM at ferroportin [1] (setting [3]) and 30 to 100 nM on ferroportin [2] (setting [4]).

Turning to `CCCCCCCCCCCCCCCC(=O)NCC[N+](C)(C)CC(=O)NCCOCCOCC(=O)NCCOCCOCC(=O)NCCCC[C@H](NC(=O)[C@@H]1CCSSC[C@H](NC(=O)[C@H](CCC(=O)O)NC(=O)CC(C)C)C(=O)N[C@@H](Cc2c[nH]cn2)C(=O)N[C@@H](C(c2ccccc2)c2ccccc2)C(=O)N1)C(=O)NCCCCc1ccccc1` [compound 213], the IC50 on ferroportin [1] (setting [3]) fell in the range of 10 to 100 nM; at ferroportin [2] (setting [4]), 100 to 500 nM.

Turning to `CCCCCCCCCCCCCCCC(=O)N[C@@H](CCCC[N+](C)(C)C)C(=O)NCCOCCOCC(=O)NCCOCCOCC(=O)NCCCC[C@H](NC(=O)[C@@H]1CCCN1C(=O)[C@@H](NC(=O)[C@H](Cc1c[nH]cn1)NC(=O)[C@@H](NC(=O)[C@H](CCC(=O)O)NC(=O)CC(C)C)[C@@H](C)O)C(c1ccccc1)c1ccccc1)C(=O)NCCCCc1ccccc1` [compound 201], the IC50 on ferroportin [1] (setting [3]) was 0.1 to 10 nM; at ferroportin [2] (setting [4]), 1 to 30 nM.

`CCCCCCCCCCCCCCCC(=O)NCC[N+](C)(C)CC(=O)NCCOCCOCC(=O)NCCOCCOCC(=O)NCCCC[C@H](NC(=O)[C@@H]1C[C@@H]2CN1C(=O)[C@H](C(c1ccccc1)c1ccccc1)NC(=O)[C@H](Cc1c[nH]cn1)NC(=O)[C@H]([C@@H](C)O)NC(=O)[C@@H](NC(=O)CC(C)C)CCCC(=O)N2)C(=O)NCCCCc1ccccc1` [compound 189]: the IC50 fell in the range of 10 to 100 nM on ferroportin [1] (setting [3]) and 1 to 30 nM at ferroportin [2] (setting [4]).

For the compound `CC(C)CC(=O)N[C@@H](CCC(=O)O)C(=O)N[C@H](C(=O)N[C@@H](Cc1c[nH]cn1)C(=O)N[C@H](C(=O)N1CCC[C@H]1C(=O)N[C@@H](CNC(=O)[C@H](CCCC[N+](C)(C)C)NC(=O)OCC1c2ccccc2-c2ccccc21)C(=O)NCCCCc1ccccc1)C(c1ccccc1)c1ccccc1)[C@@H](C)O` [compound 158], the IC50 was > 500 nM at ferroportin [1] (setting [3]) and 30 to 100 nM at ferroportin [2] (setting [4]).

On to `CCCCCCCCCCCCCCCC(=O)NCC[N+](C)(C)CC(=O)NCCOCCOCC(=O)NCCOCCOCC(=O)NCCCC[C@@H](C(=O)NCCCCCc1ccccc1)N(C)C(=O)[C@@H]1CCCN1C(=O)[C@@H](NC(=O)[C@H](Cc1c[nH]cn1)NC(=O)[C@@H](NC(=O)[C@H](CCC(=O)O)NC(=O)CC(C)C)[C@@H](C)O)C(c1ccccc1)c1ccccc1` [compound 112], for which the IC50 on ferroportin [1] (setting [3]) is 0.1 to 10 nM; on ferroportin [2] (setting [4]), 1 to 30 nM.

With `CCCCCC(=O)NCCCC[C@H](NC(=O)[C@@H]1CCCN1C(=O)[C@@H](NC(=O)[C@H](Cc1c[nH]cn1)NC(=O)[C@@H](NC(=O)[C@H](CCC(=O)O)NC(=O)CC(C)C)[C@@H](C)O)C(c1ccccc1)c1ccccc1)C(=O)NCCCCCc1ccccc1` [compound 6], the results for the IC50 at ferroportin [1] (setting [5]) and on ferroportin [2] (setting [6]) were 10 to 100 nM and 1 to 30 nM, respectively.

For the compound `CCCCCCCCCCCCCCCC(=O)N[C@@H](CCC(=O)NCCOCCOCCOCCOCCC(=O)NCCCC[C@H](NC(=O)[C@@H]1CCCN1C(=O)[C@@H](NC(=O)[C@H](Cc1c[nH]cn1)NC(=O)[C@@H](NC(=O)[C@H](CCC(=O)O)NC(=O)CC(C)C)[C@@H](C)O)C(c1ccccc1)c1ccccc1)C(=O)NCCCCCc1ccccc1)C(=O)O` [compound 114], the IC50 fell in the range of 10 to 100 nM on ferroportin [1] (setting [3]) and 1 to 30 nM at ferroportin [2] (setting [4]).

For the compound `COC(=O)CC[C@H](NC(=O)CC(C)C)C(=O)N[C@H](C(=O)N[C@@H](Cc1c[nH]cn1)C(=O)N[C@H](C(=O)N1CCC[C@H]1C(=O)N1CCC[C@H]1C(=O)NCC(=O)N(C)[C@@H](CCCCNC(=O)COCCOCCNC(=O)COCCOCCNC(=O)[C@H](CN)NC(=O)CCCCCCCCCCCCCCCCC(=O)O)C(=O)N[C@H](CC(=O)N[C@H](CCCCN)C(N)=O)Cc1ccccc1)C(c1ccccc1)c1ccccc1)[C@@H](C)O` [compound 46], the IC50 on ferroportin [1] (setting [5]) is > 500 nM; at ferroportin [2] (setting [6]), 1 to 30 nM.

With `CC(C)CC(=O)N[C@@H](CCC(=O)O)C(=O)N1C[C@@H]2C[C@H]1C(=O)N[C@@H](Cc1c[nH]cn1)C(=O)N[C@@H](C(c1ccccc1)c1ccccc1)C(=O)N1C[C@@H](C[C@H]1C(=O)N[C@@H](CCCC[N+](C)(C)C)C(=O)NCCCCc1ccccc1)SS2` [compound 167], the figures for the IC50 at ferroportin [1] (setting [3]) and at ferroportin [2] (setting [4]) were 100 to 500 nM and 30 to 100 nM, respectively.

By IC50 is commonly meant the concentration that inhibits the measured activity by half.
